Measured melting point values of organic chemicals

Values as listed in the OPERA 2.9 repository of K. Mansouri.

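The numbers are reported measurements, compiled and curated for the OPERA QSAR suite. A listed value is a point estimate from one report or more. Method and conditions are not stated for these values. The measured form (salt, isomer or mixture) is not always the one drawn. Unmarked limits or estimates from the upstream databases cannot be ruled out.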

Melting points are in °C.

Cc1nc2ccccc2n1N [2-Methyl-1H-benzimidazol-1-amine] has mp 146 °C. The entry for Fc1ccc(-c2csc(Nc3ccccc3)n2)cc1 [4-(4-Fluorophenyl)-N-phenyl-1,3-thiazol-2-amine] lists mp 92 °C. For C=CC(=O)OCCCCCCCCCC [Decyl prop-2-enoate] the data give mp 0 °C. The entry for O=C(O)c1c[nH]cc1-c1ccccc1 [4-phenyl-1H-pyrrole-3-carboxylic Acid] lists mp 213 °C.

For Cc1ccc(-c2nn(-c3ccccc3)cc2C=O)o1 [3-(5-Methylfuran-2-yl)-1-phenyl-1H-pyrazole-4-carbaldehyde] the data give mp 113 °C. Cc1ccc(C)n1CC(=O)O [(2,5-Dimethyl-1H-pyrrol-1-yl)acetic acid] has mp 100 °C. For CCNC(=O)c1ccccc1N [2-amino-N-ethylbenzamide] the data give mp 94 °C. CC1(c2ccccc2)NC(=O)N(N)C1=O (configuration not stated) [3-amino-5-methyl-5-phenylimidazolidine-2,4-dione] has mp 170 °C.

For CC(O)c1cc(Cl)ccc1Cl (configuration not stated) the data give mp 62 °C. The entry for O=C(O)CC1C=CS(=O)(=O)C1 (configuration not stated) lists mp 82 °C. For COc1ccccc1OCCBr [2-(2-Bromoethoxy)anisole] the data give mp 40 °C. Cn1c(SCC(=O)O)nc2ccccc21 [[(1-Methyl-1H-benzimidazol-2-yl)sulfanyl]acetic acid] is reported with mp 157 °C.

Listed for CCC(C)n1nccc1N (configuration not stated) [1-sec-butyl-1H-pyrazol-5-amine]: mp 31 °C. The entry for O=S(=O)(NS(=O)(=O)C(F)(F)C(F)(F)C(F)(F)C(F)(F)F)C(F)(F)C(F)(F)C(F)(F)C(F)(F)F [Bis(1,1,2,2,3,3,4,4,4-nonafluoro-1-butanesulfonyl)imide] lists mp 120.7 °C. C=C(C)C(=O)OCCCCCCCCCCCCCCCCCCCC [2-Propenoic acid, 2-methyl-, eicosyl ester] has mp 37.15 °C. NS(=O)(=O)c1ccc(S(=O)(=O)CCCO)s1 [5-[(3-Hydroxypropyl)sulfonyl]-2-thiophenesulfonamide] has mp 107 °C.

Listed for Cc1ccc(C(=O)O)n1C [1,5-dimethyl-1H-pyrrole-2-carboxylic acid]: mp 150 °C. For CCC(N)C(O)C(F)(F)C(F)(F)C(F)(F)F.Cl (configuration not stated) the data give mp 197.5 °C. Nc1ccccc1C(=O)NCCCN1CCOCC1 [2-Amino-N-[3-(morpholin-4-yl)propyl]benzamide] has mp 196 °C. The entry for O=c1nc(Cl)sc2ccccc12 [2-Chloro-benzo[e][1,3]thiazin-4-one] lists mp 109 °C.

CCOc1ccc(NC(=O)CCl)cc1 [p-Acetophenetidide, 2-chloro-] is reported with mp 150 °C. The entry for O=C(O)Cc1cc(=O)n(-c2ccccc2)[nH]1 [(5-hydroxy-1-phenyl-1H-pyrazol-3-yl)acetic acid] lists mp 100 °C. Cc1ccc2nc(C)c(C(=O)O)cc2c1 [2,6-Dimethylquinoline-3-carboxylic acid] has mp 175 °C. The entry for COc1cc(C)ccc1C(=O)CBr [2-bromo-1-(2-methoxy-4-methylphenyl)ethanone] lists mp 78 °C.

Listed for CC(C)CCNC(N)=S [(3-Methyl-butyl)-thiourea]: mp 94 °C. CC(C)(C)OC(=O)Nc1cc(N)ccc1F [tert-Butyl (5-amino-2-fluorophenyl)carbamate] has mp 93 °C. CC(=O)c1cc(C)cc(C(C)=O)c1O [1,1'-(2-Hydroxy-5-methyl-1,3-phenylene)di(ethan-1-one)] has mp 51 °C. Listed for O=C(CBr)c1ccc(S(=O)(=O)N2CCCCC2)cc1 [2-Bromo-1-[4-(piperidine-1-sulfonyl)phenyl]ethan-1-one]: mp 109 °C.

Listed for COc1c(F)cc(F)cc1C#N [3,5-Difluoro-2-methoxybenzonitrile]: mp 34.5 °C. For Cc1c(C)n(Cc2ccco2)c2ncnc(N)c12 the data give mp 181 °C. The entry for NNC(=O)C1COc2ccccc2O1 (configuration not stated) [2,3-dihydro-1,4-benzodioxine-2-carbohydrazide] lists mp 112 °C. COC(=O)c1c(C)[nH]c(C(=O)O)c1C [3,5-Dimethyl-1H-pyrrole-2,4-dicarboxylic acid 4-methyl ester] has mp 207 °C.

The entry for CCN(CC)Cc1ncccc1O [2-[(Diethylamino)methyl]pyridin-3-ol] lists mp 142 °C. O=c1c(Cl)c(Cl)cnn1-c1ccc(S(=O)(=O)Cl)cc1 has mp 145 °C. O=Cc1c(F)cc(O)cc1F [2,6-Difluoro-4-hydroxybenzaldehyde] is reported with mp 180.5 °C. The entry for CN(C)S(=O)(=O)c1cccc(C(=O)NN)c1 [3-(Hydrazinecarbonyl)-N,N-dimethylbenzene-1-sulfonamide] lists mp 150 °C.

The entry for O=C(CCl)Nc1ccccc1-c1ccccc1 [N-Biphenyl-2-yl-2-chloro-acetamide] lists mp 104 °C. Listed for CC(C)NC(=O)CCCl [3-chloro-N-isopropylpropanamide]: mp 68 °C. Listed for Cc1oc(N)c(C#N)c1C [2-Amino-4,5-dimethyl-3-furonitrile]: mp 166 °C. CC1=C(NC(=O)O)/C(=N/C(=O)CN)C=CC1(NC(=O)O)c1cccc(C2=CC=C/C(=N\C(=O)CN)C2C)c1 (stereo partly drawn) is reported with mp 202.1 °C.

Cn1c(-c2ccc(F)cc2)n[nH]c1=S has mp 113 °C. CCOS(=O)(=O)c1cc(C(C)(C)C)cc2cc(C(C)(C)C)ccc12 [Ethyl dibunate] has mp 138 °C. Nc1ccccc1C(=O)NCC1CCCO1 (configuration not stated) [2-amino-N-(tetrahydrofuran-2-ylmethyl)benzamide] is reported with mp 79 °C. For Cc1ccc2c(c1)C(C)(C)C(C)CC2(C)C (configuration not stated) [Naphthalene, 1,2,3,4-tetrahydro-1,1,2,4,4,7-hexamethyl-] the data give mp 64.4 °C.

CC1CC(=O)OC(=O)C1 [3-Methylglutaric anhydride] has mp 45.5 °C. Fc1cc2cccnc2cc1F [6,7-Difluoroquinoline] has mp 110 °C. The entry for COC(=O)CNS(=O)(=O)c1ccc(N)cc1 [methyl {[(4-aminophenyl)sulfonyl]amino}acetate] lists mp 79 °C. For CN1c2ccccc2C(C)(C)C12C=Cc1cc([N+](=O)[O-])ccc1O2 (configuration not stated) the data give mp 180 °C.

Listed for Cc1ccc(C)c(NC(=O)CCl)c1 [2-chloro-N-(2,5-dimethylphenyl)acetamide]: mp 162 °C. The entry for O=C(Nc1ccccn1)c1cc2ccccc2cc1O [3-hydroxy-n-pyridin-2-yl-2-naphthamide] lists mp 237 °C. COc1cc(NC(=O)CCl)cc(OC)c1OC [2-chloro-N-(3,4,5-trimethoxyphenyl)acetamide] has mp 105 °C. Listed for CC(C)(C)/C([O-])=C/C(=O)C(F)(F)C(F)(F)C(F)(F)F.CC(C)(C)/C([O-])=C/C(=O)C(F)(F)C(F)(F)C(F)(F)F.CC(C)(C)/C([O-])=C/C(=O)C(F)(F)C(F)(F)C(F)(F)F.[Nd+3]: mp 207 °C.

Excerpt, the opening 8 entries:

structure (SMILES)	name	mp (°C)
Cc1nc2ccccc2n1N	2-Methyl-1H-benzimidazol-1-amine	146
Fc1ccc(-c2csc(Nc3ccccc3)n2)cc1	4-(4-Fluorophenyl)-N-phenyl-1,3-thiazol-2-amine	92
C=CC(=O)OCCCCCCCCCC	Decyl prop-2-enoate	0
O=C(O)c1c[nH]cc1-c1ccccc1	4-phenyl-1H-pyrrole-3-carboxylic Acid	213
Cc1ccc(-c2nn(-c3ccccc3)cc2C=O)o1	3-(5-Methylfuran-2-yl)-1-phenyl-1H-pyrazole-4-carbaldehyde	113
Cc1ccc(C)n1CC(=O)O	(2,5-Dimethyl-1H-pyrrol-1-yl)acetic acid	100
CCNC(=O)c1ccccc1N	2-amino-N-ethylbenzamide	94
CC1(c2ccccc2)NC(=O)N(N)C1=O (configuration not stated)	3-amino-5-methyl-5-phenylimidazolidine-2,4-dione	170